Target: MOR (Mus musculus, UniProt P42866)
Assay: biochemical
Conditions: read-out: MOR [35S]GTPγS Binding %Emax of DAMGO

The chains behind the UniProt entries cited, without tags or fusion partners.
UniProt P42866, whole entry: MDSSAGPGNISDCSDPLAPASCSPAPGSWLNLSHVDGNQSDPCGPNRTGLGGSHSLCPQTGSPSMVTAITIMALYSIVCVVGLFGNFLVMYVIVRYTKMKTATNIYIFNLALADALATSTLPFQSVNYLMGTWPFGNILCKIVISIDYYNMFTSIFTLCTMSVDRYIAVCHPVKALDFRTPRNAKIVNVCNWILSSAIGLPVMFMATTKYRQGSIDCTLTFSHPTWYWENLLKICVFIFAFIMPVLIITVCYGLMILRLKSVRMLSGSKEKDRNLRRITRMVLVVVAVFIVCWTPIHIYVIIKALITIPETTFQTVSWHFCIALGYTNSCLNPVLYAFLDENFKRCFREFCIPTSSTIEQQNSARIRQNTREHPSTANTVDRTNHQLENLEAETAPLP

Molecule `O=C(N[C@H]1CC[C@@]2(O)[C@H]3Cc4ccc(O)c5c4[C@@]2(CCN3CC2CC2)[C@H]1O5)c1cc2ccccc2c(Cl)n1` [Compound 8, 17-Cyclopropylmethyl-3,14β-dihydroxy-4,5α-epoxy-6α-(1-chloroisoquinoline-3-carboxamido)morphinan] has an Emax of 26.4 ± 0.9%.
